Patent publication US9198913B2, “Nitroimidazooxazines and their uses in anti-tubercular therapy” (priority 2009, dated 2015)

Experiment: Stability to mouse liver microsomes;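 further: analyte quantified by LC-MS/MS as ratio to internal standard peak area, mean of duplicates, 60 min value expressed relative to the 0 min level (100%)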
Type: in vitro ADME
Conditions: 1 μM, 37° C., 60 min, CD-1 mouse liver microsomes

Compound: O=[N+]([O-])c1cn2c(n1)OC[C@@H](OCc1ccc(C#Cc3ccc(OC(F)(F)F)cc3)cn1)C2 [Compound 18, (6S)-2-Nitro-6-[(5-{[4-(trifluoromethoxy)phenyl]ethynyl}-2-pyridinyl)methoxy]-6,7-dihydro-5H-imidazo[2,1-b][1,3]oxazine]
- Microsomes (% remaining, 1 h) Mouse: 97%
